Results from patent US20250213705A1 (BRIGHT PEAK THERAPEUTICS, published 2025).

By UniProt entry, the sequences of proteins in these tests, tags left out. Residues count along the entry.
UniProt Q04609, 44-750 limits assumed: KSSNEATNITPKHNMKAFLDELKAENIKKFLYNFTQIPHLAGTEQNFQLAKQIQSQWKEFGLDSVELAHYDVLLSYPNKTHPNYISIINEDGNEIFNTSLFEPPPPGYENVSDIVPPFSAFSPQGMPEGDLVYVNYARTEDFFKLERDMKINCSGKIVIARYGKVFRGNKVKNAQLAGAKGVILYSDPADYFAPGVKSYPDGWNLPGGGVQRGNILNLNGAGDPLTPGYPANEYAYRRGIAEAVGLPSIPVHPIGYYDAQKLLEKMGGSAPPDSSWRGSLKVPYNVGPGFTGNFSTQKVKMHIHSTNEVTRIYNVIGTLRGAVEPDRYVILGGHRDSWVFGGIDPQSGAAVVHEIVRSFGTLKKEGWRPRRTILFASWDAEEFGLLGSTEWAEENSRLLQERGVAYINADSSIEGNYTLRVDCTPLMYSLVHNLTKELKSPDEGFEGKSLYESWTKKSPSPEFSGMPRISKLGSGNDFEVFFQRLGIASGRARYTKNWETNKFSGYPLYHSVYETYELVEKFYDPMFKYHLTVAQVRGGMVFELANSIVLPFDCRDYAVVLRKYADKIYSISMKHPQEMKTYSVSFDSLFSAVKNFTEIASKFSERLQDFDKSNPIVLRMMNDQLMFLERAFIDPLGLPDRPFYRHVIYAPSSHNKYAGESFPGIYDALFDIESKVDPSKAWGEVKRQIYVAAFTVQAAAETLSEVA

Molecular target: Recombinant Human PSMA/FOLH1 Protein, CF (rnd systems) (human, UniProt Q04609 44-750)
Experiment: cell-based or functional assay

| Binder | IC50 (nM), inhibition of NAAG hydrolysis by PSMA (Amplex Red) [nM] |
| --- | --- |
| YYSSEEGFGW (Ac-Tyr-Tyr-Ser-Ser-Glu-Glu-Gly-Phe(4-COOH)-Gly-Trp joined to the Lys side chain of Glu-urea-Lys (by the synthesis in paragraph 443)) [Compound 117] | 0.293 |
| EEEGFGW (Ac-Glu-Glu-Glu-Gly-Phe(4-COOH)-Gly-Trp joined to the Lys side chain of Glu-urea-Lys (by the synthesis in paragraph 445)) [Compound 118] | 0.312 |
